Test results reported in US20100132066A1, “AGROBACTERIUM-MEDIATED METHOD FOR PRODUCING TRANSFORMED PLANT WITHOUT SELECTION STEP” (JAPAN TOBACCO INC., priority 2007, published 2010).

Test system: Immature embryos (variety: A188)
Test: Effect of dicamba and 2,4-D in coculture medium on regeneration (Example 2, FIG. 3)
Format: cell-based, Maize
Details: coculture medium with this auxin alone (1.5 mg/l), selection step eliminated, LBA4404 (U0009B)

## O=C(O)COc1ccc(Cl)cc1Cl [2,4-D, 2,4-dichlorophenoxyacetic acid]
  regeneration rate: 15.8%
